Results taken from ChEMBL document CHEMBL2074017, “Distinct characteristics of organic cation transporters, OCT1 and OCT2, in the basolateral membrane of renal tubules” (Pharm Res, 2001).

Target: T1, Solute carrier family 22 member 1 (Rattus norvegicus, UniProt Q63089)
T1 sequence (Q63089 whole entry): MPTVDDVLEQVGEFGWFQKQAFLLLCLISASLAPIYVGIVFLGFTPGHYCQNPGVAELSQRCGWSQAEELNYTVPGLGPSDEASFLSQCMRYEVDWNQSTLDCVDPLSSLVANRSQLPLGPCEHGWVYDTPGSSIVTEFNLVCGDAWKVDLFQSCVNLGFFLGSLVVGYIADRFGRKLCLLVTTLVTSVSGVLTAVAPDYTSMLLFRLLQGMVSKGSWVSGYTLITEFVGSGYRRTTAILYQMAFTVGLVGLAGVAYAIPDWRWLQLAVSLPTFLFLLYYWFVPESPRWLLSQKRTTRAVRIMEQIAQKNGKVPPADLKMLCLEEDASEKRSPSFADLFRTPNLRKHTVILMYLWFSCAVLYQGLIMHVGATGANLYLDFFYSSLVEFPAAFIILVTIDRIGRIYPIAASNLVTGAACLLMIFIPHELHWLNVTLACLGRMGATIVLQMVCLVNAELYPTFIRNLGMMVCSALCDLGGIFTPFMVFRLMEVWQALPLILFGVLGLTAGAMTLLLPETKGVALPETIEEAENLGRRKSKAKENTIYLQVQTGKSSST
Assay type: functional, cell-based, MDCK

`C[N+](C)(C)C` [TETRAMETHYLAMMONIUM] gave an IC50 of 1.14 mM.
